The test deals with human GPR119 receptor (Homo sapiens, UniProt Q8TDV5, S329A/T327A). In words: cAMP assay (LANCE cAMP-384 Kit), cAMP accumulation in HEK293 cells stably expressing mutant human GPR119 receptor. The following applies: HEK293 cells stably expressing a mutant form of the human GPR119 receptor, 20 min at 37° C. The procedure: Quantitative detection of cAMP accumulation from cells expressing human GPR119 receptor was achieved using Perkin Elmer's LANCE cAMP-384 Kit (Cat#AD0264) according to the manufacturer's protocol. Briefly, HEK293 cells stably expressing a mutant form of the human GPR119 receptor (Methionine 1 replaced with the amino acid sequence […] , and T327 & S329 changed to alanines) were grown to 50-70% confluency in cell culture media (DMEM, 10% heat inactivated Fetal Bovine Serum, 50 I.U./mL penicillin, 50 μg/mL streptomycin, 10 mM HEPES, 20 μg/mL G418 Sulfate). On the day of the assay, GPR119 stable HEK293 cells were lifted from the tissue culture plate and 1000 cells/well were incubated along with various concentrations of test compounds for 20 min at 37° C. Detection Buffer (50 mM HEPES, 10 mM calcium chloride, 0.35% Triton X-100, 1 mg/mL BSA) containing cAMP-specific antibody was then added to all wells and allowed to equilibrate in the dark for 10 minutes at room temperature. […] After 1 hour, bound europium-labeled cAMP tracer was measured using a Perkin Elmer ViewLux. The quantity of cAMP generated in each well was derived from a standard curve.
For some compounds for which no EC50 value could be determined, the efficacy is provided at a single concentration (10 μM) yielding % stimulation values.
For orientation: Changes in cAMP serve as a functional read-out for many G protein-coupled receptors.

By UniProt entry, the sequences of proteins in these tests, tags left out. Chains listed by the source or under a name are the forms on record and can include a tag or linker. Residues count along the entry.
UniProt Q8TDV5, 2-335 with tags or gaps S329A/T327A limits assumed: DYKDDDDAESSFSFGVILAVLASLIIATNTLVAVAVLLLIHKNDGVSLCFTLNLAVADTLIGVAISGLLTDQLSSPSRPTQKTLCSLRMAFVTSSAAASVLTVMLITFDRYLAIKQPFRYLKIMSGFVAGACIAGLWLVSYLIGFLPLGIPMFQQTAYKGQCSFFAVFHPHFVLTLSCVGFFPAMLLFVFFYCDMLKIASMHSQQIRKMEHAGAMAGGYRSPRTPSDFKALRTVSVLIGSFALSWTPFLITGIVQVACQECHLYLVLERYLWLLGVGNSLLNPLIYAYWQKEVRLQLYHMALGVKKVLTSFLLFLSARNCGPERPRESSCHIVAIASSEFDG

We go through one compound from patent US8481731B2, “Compounds, pharmaceutical composition and methods relating thereto” (Boehringer Ingelheim International GmbH, priority 2009, dated 2013).

Broadly, the EC50 is the concentration at which the effect is half-maximal. As for `CC(C)(C)OC(=O)CN1CCC(Oc2cc(N3CCc4cc(S(C)(=O)=O)ccc43)ncn2)CC1`, the EC50 was found to be 168 nM.
